Results as given in ChEMBL document CHEMBL1817669, “Design and pharmacological evaluation of PF-4840154, a non-electrophilic reference agonist of the TrpA1 channel” (Bioorg Med Chem Lett, 2011).

Protein sequences, listed by entry. Tags and fused reporters are not part of them.
UniProt Q6RI86, whole entry: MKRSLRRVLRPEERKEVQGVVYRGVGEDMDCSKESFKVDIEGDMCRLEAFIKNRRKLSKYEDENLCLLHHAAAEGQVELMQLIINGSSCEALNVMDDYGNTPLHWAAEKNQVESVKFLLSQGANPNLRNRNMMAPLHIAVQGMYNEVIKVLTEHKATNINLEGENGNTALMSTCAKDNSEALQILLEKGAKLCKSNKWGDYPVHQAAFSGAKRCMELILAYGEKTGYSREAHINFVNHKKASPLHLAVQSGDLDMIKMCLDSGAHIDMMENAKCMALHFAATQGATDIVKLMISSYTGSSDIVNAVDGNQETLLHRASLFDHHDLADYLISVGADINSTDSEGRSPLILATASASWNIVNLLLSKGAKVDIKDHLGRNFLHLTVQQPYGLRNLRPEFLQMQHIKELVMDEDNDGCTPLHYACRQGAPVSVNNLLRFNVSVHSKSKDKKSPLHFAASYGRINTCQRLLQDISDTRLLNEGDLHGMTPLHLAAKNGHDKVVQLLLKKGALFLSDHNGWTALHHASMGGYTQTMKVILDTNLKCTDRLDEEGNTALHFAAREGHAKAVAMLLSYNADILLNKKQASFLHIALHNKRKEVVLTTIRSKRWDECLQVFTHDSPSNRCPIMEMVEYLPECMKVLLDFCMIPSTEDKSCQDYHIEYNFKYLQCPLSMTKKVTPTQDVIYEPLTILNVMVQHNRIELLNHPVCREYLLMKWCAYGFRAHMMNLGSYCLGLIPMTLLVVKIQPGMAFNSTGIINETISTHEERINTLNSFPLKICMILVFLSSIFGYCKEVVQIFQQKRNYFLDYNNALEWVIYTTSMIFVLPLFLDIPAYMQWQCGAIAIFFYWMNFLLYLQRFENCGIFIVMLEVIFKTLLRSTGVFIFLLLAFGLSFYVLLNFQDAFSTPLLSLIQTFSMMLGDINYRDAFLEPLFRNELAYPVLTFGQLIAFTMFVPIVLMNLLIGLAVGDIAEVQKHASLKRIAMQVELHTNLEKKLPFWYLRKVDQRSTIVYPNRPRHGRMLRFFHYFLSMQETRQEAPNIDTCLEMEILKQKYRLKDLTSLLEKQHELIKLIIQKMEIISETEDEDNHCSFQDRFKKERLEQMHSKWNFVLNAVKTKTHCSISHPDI

Target: Transient receptor potential cation channel subfamily A member 1 (Rattus norvegicus, UniProt Q6RI86)
Assay: Agonist activity at rat TRPA1 channel expressed in HEK293 cells assessed as calcium influx measured at every 1 second for 60 seconds by fluorescence analysis
Assay type: functional, cell-based

**Q.** Which EC50 does the source give for `C=CCN=C=S` [ALLYL ISOTHIOCYANATE] here?
**A.** 5.81 µM
